Experiment [1] deals with Mu-type opioid receptor (Mus musculus, UniProt P42866). The experiment is described as follows: Displacement of [3H]DAMGO from mouse mu opioid receptor expressed in HEK293 cells by liquid scintillation counting. It counts as cell-based. In general terms: In a radioligand displacement assay an active substance lowers the binding of a labelled ligand.
The target in experiment [2] is 5-hydroxytryptamine receptor 1D (Homo sapiens, UniProt P28221). The experiment is described as follows: Inhibition of 5HT1D receptor.
The target of experiment [3] is D(1A) dopamine receptor (Homo sapiens, UniProt P21728). The experiment is described as follows: Inhibition of dopamine D1 receptor.
In experiment [4] the target is Histamine H1 receptor (Homo sapiens, UniProt P35367). The experiment is described as follows: Inhibition of histamine H1 receptor.
For experiment [5], the target named is Delta-type opioid receptor (Mus musculus, UniProt P32300). The experiment is described as follows: Displacement of [3H]bremazocine from mouse delta opioid receptor expressed in HEK293 cells by liquid scintillation counting. In kind it is cell-based.

Sequences of proteins named here, by UniProt entry; tags and fusion partners are left off. A change or cut given only in a name is not applied to a line headed by its entry.
UniProt P42866, whole entry: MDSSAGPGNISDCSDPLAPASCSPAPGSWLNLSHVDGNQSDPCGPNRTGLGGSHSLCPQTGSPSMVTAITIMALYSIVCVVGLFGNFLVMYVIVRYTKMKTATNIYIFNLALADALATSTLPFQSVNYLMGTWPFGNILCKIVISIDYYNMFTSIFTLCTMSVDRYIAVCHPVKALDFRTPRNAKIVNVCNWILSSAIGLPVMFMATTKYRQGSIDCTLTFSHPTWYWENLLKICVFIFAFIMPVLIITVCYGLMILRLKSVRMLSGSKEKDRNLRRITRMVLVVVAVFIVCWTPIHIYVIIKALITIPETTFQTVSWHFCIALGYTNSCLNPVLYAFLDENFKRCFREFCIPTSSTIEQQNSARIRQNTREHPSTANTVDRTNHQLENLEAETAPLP
UniProt P28221: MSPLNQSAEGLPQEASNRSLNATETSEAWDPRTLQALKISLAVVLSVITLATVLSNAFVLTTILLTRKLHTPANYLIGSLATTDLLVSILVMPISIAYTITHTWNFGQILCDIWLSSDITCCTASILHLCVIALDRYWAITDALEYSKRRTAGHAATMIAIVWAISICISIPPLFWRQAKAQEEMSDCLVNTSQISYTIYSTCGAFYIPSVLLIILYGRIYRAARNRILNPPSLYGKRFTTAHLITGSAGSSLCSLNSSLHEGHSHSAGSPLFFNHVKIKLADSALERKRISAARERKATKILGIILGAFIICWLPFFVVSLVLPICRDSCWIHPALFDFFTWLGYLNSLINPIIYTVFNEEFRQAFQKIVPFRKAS
UniProt P21728, whole entry: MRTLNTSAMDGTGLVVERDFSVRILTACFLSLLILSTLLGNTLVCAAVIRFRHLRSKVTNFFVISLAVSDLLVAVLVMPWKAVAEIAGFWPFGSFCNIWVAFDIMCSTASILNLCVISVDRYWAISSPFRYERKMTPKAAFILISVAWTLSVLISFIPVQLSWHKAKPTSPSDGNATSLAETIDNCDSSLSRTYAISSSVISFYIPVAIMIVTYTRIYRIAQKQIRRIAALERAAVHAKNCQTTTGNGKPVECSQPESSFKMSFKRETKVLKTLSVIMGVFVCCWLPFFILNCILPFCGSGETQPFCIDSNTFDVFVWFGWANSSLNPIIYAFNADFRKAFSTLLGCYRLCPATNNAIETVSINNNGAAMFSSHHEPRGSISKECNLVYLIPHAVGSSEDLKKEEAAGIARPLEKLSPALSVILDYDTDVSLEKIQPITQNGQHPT
UniProt P35367, whole entry: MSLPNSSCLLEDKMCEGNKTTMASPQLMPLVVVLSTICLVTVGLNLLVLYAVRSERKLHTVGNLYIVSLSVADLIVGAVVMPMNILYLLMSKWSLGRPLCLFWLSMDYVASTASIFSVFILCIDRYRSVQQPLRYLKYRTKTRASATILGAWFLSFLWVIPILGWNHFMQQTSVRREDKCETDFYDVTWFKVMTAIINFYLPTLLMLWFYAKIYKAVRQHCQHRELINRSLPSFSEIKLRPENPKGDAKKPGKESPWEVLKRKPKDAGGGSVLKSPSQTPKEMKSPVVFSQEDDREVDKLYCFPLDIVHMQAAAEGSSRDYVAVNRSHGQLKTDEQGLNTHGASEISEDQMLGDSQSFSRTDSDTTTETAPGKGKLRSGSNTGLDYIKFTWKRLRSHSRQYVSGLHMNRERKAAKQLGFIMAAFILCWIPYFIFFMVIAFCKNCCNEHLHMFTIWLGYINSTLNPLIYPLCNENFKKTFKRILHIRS
UniProt P32300, whole entry: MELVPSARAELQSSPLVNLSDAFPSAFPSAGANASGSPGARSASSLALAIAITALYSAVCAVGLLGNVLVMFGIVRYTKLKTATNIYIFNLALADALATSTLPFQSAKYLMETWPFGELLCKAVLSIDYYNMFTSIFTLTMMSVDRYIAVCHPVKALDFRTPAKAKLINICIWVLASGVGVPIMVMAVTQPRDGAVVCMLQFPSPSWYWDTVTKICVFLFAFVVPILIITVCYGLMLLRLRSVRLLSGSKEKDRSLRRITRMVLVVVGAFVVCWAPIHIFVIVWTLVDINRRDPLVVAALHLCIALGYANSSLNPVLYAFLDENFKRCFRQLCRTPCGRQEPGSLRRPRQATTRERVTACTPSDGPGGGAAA

Take `CN(C)Cc1nc(-c2ccc(C(C)(C)C)cc2)n(-c2cccc(O)c2)n1`: the IC50 in experiment [1], in experiment [2], in experiment [3] and in experiment [4] was above 10 µM in each case.
In experiment [5], `CN(C)Cc1nnc(-c2ccc(C(C)(C)C)cc2)n1-c1cccc(O)c1` returned an inhibition constant Ki of 0.46 µM.

As a reminder, the IC50 is the concentration needed to halve the response being measured. A lower IC50 goes with greater potency. One may read the Ki as the dissociation constant of the complex between target and ligand, obtained from inhibition or displacement. Read a high Ki as lower affinity.

Values taken from ChEMBL document CHEMBL1152515 (Bioorg Med Chem, 2009).
